1 compound from ChEMBL document CHEMBL4020721 (Eur J Med Chem, 2017) can be followed below.

A short description of data set [1]: Drug recovery in mouse liver microsomes at 1 uM measured after 30 mins by LC-MS/MS analysis. A general note: Liver microsomes are a subcellular fraction often used to study metabolism.
The nature of data set [2]: Intrinsic clearance in mouse liver microsomes assessed per mg protein at 1 uM preincubated for 5 mins followed by NADPH addition measured after 5 to 30 mins by LC-MS/MS analysis. To be noted: read-out: CLH.
The nature of data set [3]: Drug metabolism in monkey cytosol assessed as AO-mediated metabolite formation by measuring parent compound remaining at 100 uM after 30 mins in presence of 100 uM AO inhibitor menadione by LC-MS/MS analysis. Type of data set: ADME, Macaca mulatta. The note with it: rhesus monkey, 0.5 h.
A short description of data set [4]: Drug recovery in rat liver microsomes at 1 uM measured after 30 mins by LC-MS/MS analysis. Type of data set: ADME, microsome. The note with it: read-out: Drug recovery. The essentials:
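Liver microsomes (0.5 mg/ml) were incubated with 1 µM compound at 37°C in 100 mM phosphate buffer pH 7.4 without NADPH for 30 min. Reactions were quenched with acetonitrile/tinidazole internal standard and analysed by LC-MS/MS. Recovery (%) was taken from the compound/internal standard peak area ratio.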

Data set [5] in a line: Drug metabolism in monkey cytosol assessed as AO-mediated metabolite formation by measuring parent compound remaining at 100 uM after 30 mins in absence of AO inhibitor menadione by LC-MS/MS analysis. Type of data set: ADME, Macaca mulatta. To be noted: rhesus monkey, 0.5 h.

For `CC(c1cc2cc(-c3cnn(C)c3)cnc2cc1F)n1nnc2ncc(-c3cnn(CCO)c3)nc21` (stereo in doubt; 14), the results for the remaining at 0.5 h, 1 µM in data set [1] and in data set [4] were 107% and 101%, respectively. In addition, the microsomal CLint at 1 µM in data set [2] came to 50 µL/min/mg. The Stability in data set [3] is recorded as 99.6%; in data set [5], 99.4%.
